Test system: tomato leaf
Settings: in vivo

(S)-5-(1-hydroxy-2,6,6,-trimethyl-4-oxo-2-cyclohexen-1-yl)-3-methyl-(2Z,4E)-pentadienoic acid [ABA, reference compound]
Number of Injured leaves: 0.0 | Number of injured leaf: 0.0
